# Laboratory results: patent publication US20130017265A1, “PARTICLES FOR MULTIPLE AGENT DELIVERY” (MASSACHUSETTS INSTITUTE OF TECHNOLOGY, priority 2009, published 2013)
# Experiment: Cyclic voltammetry of Poly-Pt (Pt(IV)/Pt(II) couple)
# Format: physicochemical
# Conditions: pH 7.4, 25° C., irreversible cyclic voltammetric response
substance,measurement,value
"c,c,t[Pt(NH3)Cl2(OH)(succinate)] [Pt-Monosuccinate]","reduction potential, Pt(IV)/Pt(II) couple",−0.850 V vs Ag/AgCl
